Source: article PMC3914206

Chains of the proteins cited; added tags and fusions are not shown. Lines headed by an entry give the natural chain unless they say otherwise; changes in a name come on top. Residues count along the entry.
UniProt P51451: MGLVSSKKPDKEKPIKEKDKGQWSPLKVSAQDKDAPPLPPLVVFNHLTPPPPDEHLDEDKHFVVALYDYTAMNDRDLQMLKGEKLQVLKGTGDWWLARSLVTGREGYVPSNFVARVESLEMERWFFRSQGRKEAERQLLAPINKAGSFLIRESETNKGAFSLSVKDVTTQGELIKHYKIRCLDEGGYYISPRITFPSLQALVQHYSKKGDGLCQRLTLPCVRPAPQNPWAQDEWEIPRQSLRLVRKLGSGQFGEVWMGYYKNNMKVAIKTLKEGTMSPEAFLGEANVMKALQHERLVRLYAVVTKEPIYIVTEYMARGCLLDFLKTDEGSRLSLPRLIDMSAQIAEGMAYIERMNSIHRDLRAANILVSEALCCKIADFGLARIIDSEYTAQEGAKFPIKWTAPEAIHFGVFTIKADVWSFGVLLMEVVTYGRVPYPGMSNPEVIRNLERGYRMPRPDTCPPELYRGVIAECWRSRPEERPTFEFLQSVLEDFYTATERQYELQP
UniProt Q15835: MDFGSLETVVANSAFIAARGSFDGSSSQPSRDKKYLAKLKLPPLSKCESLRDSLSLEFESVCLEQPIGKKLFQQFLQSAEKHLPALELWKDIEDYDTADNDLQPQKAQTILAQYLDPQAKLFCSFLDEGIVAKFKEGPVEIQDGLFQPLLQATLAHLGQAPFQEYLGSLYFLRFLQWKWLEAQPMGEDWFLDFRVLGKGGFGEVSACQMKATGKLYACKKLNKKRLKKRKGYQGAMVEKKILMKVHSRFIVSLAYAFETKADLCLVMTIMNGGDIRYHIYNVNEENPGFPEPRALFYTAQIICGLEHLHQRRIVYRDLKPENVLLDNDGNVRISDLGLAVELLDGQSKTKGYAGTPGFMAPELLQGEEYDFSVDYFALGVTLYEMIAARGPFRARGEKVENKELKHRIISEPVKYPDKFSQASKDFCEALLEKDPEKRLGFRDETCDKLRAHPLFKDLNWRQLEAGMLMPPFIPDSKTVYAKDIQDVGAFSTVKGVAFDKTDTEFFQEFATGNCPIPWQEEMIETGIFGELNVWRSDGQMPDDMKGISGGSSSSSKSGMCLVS
UniProt P11802: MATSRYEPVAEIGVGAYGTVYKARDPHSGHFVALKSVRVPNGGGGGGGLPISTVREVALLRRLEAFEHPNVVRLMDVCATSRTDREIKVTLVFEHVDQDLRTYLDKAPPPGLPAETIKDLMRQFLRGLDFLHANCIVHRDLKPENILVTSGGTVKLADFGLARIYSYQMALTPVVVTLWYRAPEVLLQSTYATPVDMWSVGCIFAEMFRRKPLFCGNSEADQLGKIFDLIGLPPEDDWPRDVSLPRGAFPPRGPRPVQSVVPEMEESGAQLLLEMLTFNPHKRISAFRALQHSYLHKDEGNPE
UniProt Q8TDX7: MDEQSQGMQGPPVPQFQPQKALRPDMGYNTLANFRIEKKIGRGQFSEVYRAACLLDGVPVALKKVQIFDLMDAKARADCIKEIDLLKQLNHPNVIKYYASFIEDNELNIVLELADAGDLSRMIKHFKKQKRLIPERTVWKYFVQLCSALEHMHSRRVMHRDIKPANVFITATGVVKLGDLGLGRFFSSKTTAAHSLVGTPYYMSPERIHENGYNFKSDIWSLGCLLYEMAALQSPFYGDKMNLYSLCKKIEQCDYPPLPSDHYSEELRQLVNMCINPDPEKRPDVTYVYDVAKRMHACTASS
UniProt P54762, 18-984: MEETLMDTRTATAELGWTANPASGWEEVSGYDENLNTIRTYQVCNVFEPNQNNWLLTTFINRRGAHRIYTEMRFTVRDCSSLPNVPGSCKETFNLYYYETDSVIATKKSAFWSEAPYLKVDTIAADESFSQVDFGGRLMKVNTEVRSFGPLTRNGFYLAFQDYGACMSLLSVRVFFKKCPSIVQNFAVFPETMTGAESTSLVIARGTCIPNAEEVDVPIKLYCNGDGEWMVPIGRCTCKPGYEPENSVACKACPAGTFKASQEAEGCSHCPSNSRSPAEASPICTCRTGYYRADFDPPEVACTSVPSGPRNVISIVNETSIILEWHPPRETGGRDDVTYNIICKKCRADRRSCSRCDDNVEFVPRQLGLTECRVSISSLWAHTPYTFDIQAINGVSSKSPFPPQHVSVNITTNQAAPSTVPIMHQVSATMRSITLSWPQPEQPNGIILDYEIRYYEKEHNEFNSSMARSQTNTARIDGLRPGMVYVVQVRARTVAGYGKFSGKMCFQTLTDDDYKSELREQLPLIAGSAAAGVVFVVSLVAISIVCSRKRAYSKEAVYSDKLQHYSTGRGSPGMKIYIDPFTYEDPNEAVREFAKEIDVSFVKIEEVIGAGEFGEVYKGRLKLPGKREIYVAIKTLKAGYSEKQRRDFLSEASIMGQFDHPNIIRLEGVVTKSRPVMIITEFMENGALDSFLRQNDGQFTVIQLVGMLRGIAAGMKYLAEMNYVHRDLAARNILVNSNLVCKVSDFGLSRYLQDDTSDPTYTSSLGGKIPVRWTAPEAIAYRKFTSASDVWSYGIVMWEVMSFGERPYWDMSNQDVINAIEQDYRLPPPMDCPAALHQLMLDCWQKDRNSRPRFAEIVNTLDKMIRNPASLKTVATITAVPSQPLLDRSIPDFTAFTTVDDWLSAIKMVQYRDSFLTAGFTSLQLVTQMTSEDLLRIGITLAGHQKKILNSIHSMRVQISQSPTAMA
UniProt P42336, whole entry E545K: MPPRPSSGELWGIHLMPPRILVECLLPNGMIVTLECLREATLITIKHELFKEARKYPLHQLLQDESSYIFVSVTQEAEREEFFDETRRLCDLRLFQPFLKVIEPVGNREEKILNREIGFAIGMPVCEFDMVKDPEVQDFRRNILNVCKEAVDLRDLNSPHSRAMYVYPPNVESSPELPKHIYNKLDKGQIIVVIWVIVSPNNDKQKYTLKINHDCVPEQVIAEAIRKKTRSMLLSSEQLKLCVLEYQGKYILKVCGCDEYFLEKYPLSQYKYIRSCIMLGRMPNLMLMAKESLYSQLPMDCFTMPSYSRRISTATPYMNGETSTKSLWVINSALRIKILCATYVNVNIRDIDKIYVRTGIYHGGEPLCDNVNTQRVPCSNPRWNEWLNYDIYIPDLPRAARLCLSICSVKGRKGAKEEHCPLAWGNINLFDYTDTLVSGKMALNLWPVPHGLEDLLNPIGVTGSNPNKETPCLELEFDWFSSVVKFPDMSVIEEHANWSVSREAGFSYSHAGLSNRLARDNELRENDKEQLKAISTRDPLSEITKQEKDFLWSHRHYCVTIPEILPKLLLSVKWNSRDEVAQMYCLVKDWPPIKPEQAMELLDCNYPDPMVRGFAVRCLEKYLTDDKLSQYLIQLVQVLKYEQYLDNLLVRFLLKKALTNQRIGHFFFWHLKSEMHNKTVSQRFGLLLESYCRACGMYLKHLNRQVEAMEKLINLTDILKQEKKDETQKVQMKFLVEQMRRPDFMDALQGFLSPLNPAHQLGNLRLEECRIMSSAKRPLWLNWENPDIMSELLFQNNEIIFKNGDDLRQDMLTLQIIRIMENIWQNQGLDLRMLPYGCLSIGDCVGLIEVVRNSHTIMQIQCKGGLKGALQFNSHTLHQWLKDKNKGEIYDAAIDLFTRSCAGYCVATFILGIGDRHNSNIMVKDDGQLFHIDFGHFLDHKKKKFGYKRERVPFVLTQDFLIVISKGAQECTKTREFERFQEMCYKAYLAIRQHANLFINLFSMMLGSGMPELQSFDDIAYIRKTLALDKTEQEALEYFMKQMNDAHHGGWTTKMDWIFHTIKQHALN
UniProt P42336, whole entry: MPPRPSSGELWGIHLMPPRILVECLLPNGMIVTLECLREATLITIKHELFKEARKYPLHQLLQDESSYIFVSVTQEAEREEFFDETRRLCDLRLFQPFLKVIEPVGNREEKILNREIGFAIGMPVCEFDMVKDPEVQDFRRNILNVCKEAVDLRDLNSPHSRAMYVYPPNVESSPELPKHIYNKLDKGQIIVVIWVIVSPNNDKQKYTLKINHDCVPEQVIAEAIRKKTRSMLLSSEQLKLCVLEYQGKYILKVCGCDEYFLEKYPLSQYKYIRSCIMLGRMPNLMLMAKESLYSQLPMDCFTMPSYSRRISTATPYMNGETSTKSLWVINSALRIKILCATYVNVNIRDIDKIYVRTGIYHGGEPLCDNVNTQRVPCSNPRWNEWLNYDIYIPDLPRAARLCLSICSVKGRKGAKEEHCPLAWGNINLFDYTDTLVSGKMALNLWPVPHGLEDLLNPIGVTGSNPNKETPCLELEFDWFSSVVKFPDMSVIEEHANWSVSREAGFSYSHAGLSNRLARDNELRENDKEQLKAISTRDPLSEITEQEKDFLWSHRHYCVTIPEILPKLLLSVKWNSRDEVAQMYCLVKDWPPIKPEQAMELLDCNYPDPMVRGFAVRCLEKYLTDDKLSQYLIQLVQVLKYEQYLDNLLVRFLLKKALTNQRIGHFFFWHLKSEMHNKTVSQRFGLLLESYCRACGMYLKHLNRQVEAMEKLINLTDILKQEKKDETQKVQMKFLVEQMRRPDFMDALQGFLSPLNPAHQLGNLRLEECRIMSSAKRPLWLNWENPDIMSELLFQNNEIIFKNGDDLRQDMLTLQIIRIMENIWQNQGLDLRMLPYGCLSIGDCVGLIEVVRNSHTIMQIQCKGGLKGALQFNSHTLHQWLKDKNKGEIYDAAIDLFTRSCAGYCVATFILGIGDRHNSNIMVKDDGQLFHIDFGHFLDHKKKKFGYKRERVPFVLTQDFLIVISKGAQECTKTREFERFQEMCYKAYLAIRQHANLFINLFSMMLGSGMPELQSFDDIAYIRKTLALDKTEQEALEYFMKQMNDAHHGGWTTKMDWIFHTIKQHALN
UniProt O00329: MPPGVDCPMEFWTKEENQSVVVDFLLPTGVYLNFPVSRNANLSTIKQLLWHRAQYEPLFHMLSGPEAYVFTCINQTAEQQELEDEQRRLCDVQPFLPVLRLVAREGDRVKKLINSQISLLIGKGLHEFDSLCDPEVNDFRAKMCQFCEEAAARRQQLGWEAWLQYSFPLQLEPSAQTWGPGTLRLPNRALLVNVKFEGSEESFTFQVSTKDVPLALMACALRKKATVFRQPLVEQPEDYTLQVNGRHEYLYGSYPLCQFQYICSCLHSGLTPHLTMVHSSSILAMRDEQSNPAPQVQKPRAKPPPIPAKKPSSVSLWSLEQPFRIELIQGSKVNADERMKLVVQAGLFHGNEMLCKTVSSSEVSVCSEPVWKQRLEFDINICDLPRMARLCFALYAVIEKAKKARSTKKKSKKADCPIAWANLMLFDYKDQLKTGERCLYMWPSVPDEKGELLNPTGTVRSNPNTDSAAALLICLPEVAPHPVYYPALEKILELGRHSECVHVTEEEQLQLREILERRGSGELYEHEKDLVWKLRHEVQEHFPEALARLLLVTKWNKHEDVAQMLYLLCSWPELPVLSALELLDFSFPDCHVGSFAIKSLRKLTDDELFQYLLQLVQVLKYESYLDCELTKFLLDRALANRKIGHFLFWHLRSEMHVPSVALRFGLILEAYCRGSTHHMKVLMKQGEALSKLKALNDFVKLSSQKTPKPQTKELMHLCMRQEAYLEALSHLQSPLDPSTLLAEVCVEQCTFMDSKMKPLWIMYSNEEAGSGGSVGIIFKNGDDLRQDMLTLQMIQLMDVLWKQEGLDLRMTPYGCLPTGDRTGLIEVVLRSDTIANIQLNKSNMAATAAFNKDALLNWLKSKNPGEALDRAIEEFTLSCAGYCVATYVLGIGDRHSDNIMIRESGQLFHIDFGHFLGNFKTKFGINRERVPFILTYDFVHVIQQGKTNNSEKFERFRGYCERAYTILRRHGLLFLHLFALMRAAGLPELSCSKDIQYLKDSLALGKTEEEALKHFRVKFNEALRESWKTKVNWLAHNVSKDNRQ
UniProt P49137, whole entry: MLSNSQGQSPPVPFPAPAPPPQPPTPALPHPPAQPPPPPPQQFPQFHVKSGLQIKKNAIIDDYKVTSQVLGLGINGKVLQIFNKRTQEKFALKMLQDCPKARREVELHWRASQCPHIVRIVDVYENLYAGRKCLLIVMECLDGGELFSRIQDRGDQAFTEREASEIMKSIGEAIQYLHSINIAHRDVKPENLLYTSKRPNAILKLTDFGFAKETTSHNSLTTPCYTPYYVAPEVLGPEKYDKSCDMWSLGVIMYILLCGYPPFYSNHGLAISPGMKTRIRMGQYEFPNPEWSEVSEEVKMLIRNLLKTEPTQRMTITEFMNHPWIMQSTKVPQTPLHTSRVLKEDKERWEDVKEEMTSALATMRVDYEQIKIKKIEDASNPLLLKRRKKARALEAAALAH
UniProt Q96GD4, whole entry: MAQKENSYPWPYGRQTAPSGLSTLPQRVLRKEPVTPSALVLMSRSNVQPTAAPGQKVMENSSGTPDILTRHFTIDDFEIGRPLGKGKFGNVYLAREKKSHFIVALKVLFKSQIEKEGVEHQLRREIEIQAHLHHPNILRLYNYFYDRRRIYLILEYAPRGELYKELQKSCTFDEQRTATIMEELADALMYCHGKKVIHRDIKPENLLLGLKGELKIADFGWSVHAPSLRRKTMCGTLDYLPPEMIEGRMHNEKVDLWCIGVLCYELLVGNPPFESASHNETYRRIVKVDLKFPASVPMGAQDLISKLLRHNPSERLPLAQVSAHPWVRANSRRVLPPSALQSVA

How the values were obtained:
Assay type in all cases: binding
Settings in all cases: Compound Concentration 10 µM
panel of 442 kinases [1] = target: T1, panel of 442 kinases (Homo sapiens, UniProt Q9UPZ9)
T1 construct: purchased KINOMEscan
Description: (§1) We assessed the selectivity of members of this scaffold using the KINOMEscan methodology across a near comprehensive panel of 442 kinases [[18,27]].

panel of 442 kinases [2] = target: T2, panel of 442 kinases (Homo sapiens, UniProt Q04759)
T2 construct: purchased KINOMEscan
Description: as §1

panel of 442 kinases [3] = target: T3, panel of 442 kinases (Homo sapiens, UniProt Q96Q40)
T3 construct: purchased KINOMEscan
Description: as §1

panel of 442 kinases [4] = target: T4, panel of 442 kinases (Homo sapiens, UniProt P21709)
T4 construct: purchased KINOMEscan
Description: as §1

panel of 442 kinases [5] = target: T5, panel of 442 kinases (Homo sapiens, UniProt Q8NFD2)
T5 construct: purchased KINOMEscan
Description: as §1

panel of 442 kinases [6] = target: T6, panel of 442 kinases (Homo sapiens, UniProt Q15303)
T6 construct: purchased KINOMEscan
Description: as §1

panel of 442 kinases [7] = target: T7, panel of 442 kinases (Homo sapiens, UniProt P51451)
T7 construct: purchased KINOMEscan
Description: as §1

panel of 442 kinases [8] = target: T8, panel of 442 kinases (Homo sapiens, UniProt Q12866)
T8 construct: purchased KINOMEscan
Description: as §1

panel of 442 kinases [9] = target: T9, panel of 442 kinases (Homo sapiens, UniProt Q15835)
T9 construct: purchased KINOMEscan
Description: as §1

panel of 442 kinases [10] = target: T10, panel of 442 kinases (Homo sapiens, UniProt P07949, V804M)
T10 construct: purchased KINOMEscan
Description: as §1

panel of 442 kinases [11] = target: T11, panel of 442 kinases (Homo sapiens, UniProt Q5S007)
T11 construct: purchased KINOMEscan
Description: as §1

panel of 442 kinases [12] = target: T12, panel of 442 kinases (Homo sapiens, UniProt P11802)
T12 construct: purchased KINOMEscan
Description: as §1

panel of 442 kinases [13] = target: T13, panel of 442 kinases (Homo sapiens, UniProt Q8TBX8)
T13 construct: purchased KINOMEscan
Description: as §1

panel of 442 kinases [14] = target: T14, panel of 442 kinases (Homo sapiens, UniProt P36896)
T14 construct: purchased KINOMEscan
Description: as §1

panel of 442 kinases [15] = target: T15, panel of 442 kinases (Homo sapiens, UniProt Q8TDX7)
T15 construct: purchased KINOMEscan
Description: as §1

panel of 442 kinases [16] = target: T16, panel of 442 kinases (Homo sapiens, UniProt P54760)
T16 construct: purchased KINOMEscan
Description: as §1

panel of 442 kinases [17] = target: T17, panel of 442 kinases (Homo sapiens, UniProt P54762)
T17 construct: purchased KINOMEscan
Description: as §1

panel of 442 kinases [18] = target: T18, panel of 442 kinases (Homo sapiens, UniProt Q6DT37)
T18 construct: purchased KINOMEscan
Description: as §1

panel of 442 kinases [19] = target: T19, panel of 442 kinases (Homo sapiens, UniProt P53778)
T19 construct: purchased KINOMEscan
Description: as §1

panel of 442 kinases [20] = target: T20, panel of 442 kinases (Homo sapiens, UniProt Q9Y2U5)
T20 construct: purchased KINOMEscan
Description: as §1

panel of 442 kinases [21] = target: T21, panel of 442 kinases (Homo sapiens, UniProt P04049)
T21 construct: purchased KINOMEscan
Description: as §1

panel of 442 kinases [22] = target: T22, panel of 442 kinases (Homo sapiens, UniProt O15111)
T22 construct: purchased KINOMEscan
Description: as §1

panel of 442 kinases [23] = target: T23, panel of 442 kinases (Homo sapiens, UniProt Q08881)
T23 construct: purchased KINOMEscan
Description: as §1

panel of 442 kinases [24] = target: T24, panel of 442 kinases (Homo sapiens, UniProt P42336, E545K)
T24 construct: purchased KINOMEscan
Description: as §1

panel of 442 kinases [25] = target: T25, panel of 442 kinases (Homo sapiens, UniProt P42336)
T25 construct: purchased KINOMEscan
Description: as §1

panel of 442 kinases [26] = target: T26, panel of 442 kinases (Homo sapiens, UniProt O75747)
T26 construct: purchased KINOMEscan
Description: as §1

panel of 442 kinases [27] = target: T27, panel of 442 kinases (Homo sapiens, UniProt P42679)
T27 construct: purchased KINOMEscan
Description: as §1

panel of 442 kinases [28] = target: T28, panel of 442 kinases (Homo sapiens, UniProt Q9P289)
T28 construct: purchased KINOMEscan
Description: as §1

panel of 442 kinases [29] = target: T29, panel of 442 kinases (Homo sapiens, UniProt P08581)
T29 construct: purchased KINOMEscan
Description: as §1

panel of 442 kinases [30] = target: T30, panel of 442 kinases (Homo sapiens, UniProt Q8IVH8)
T30 construct: purchased KINOMEscan
Description: as §1

panel of 442 kinases [31] = target: T31, panel of 442 kinases (Homo sapiens, UniProt Q99755)
T31 construct: purchased KINOMEscan
Description: as §1

panel of 442 kinases [32] = target: T32, panel of 442 kinases (Homo sapiens, UniProt O43283)
T32 construct: purchased KINOMEscan
Description: as §1

panel of 442 kinases [33] = target: T33, panel of 442 kinases (Homo sapiens, UniProt O00329)
T33 construct: purchased KINOMEscan
Description: as §1

panel of 442 kinases [34] = target: T34, panel of 442 kinases (Homo sapiens, UniProt P35916)
T34 construct: purchased KINOMEscan
Description: as §1

panel of 442 kinases [35] = target: T35, panel of 442 kinases (Homo sapiens, UniProt Q32MK0)
T35 construct: purchased KINOMEscan
Description: as §1

panel of 442 kinases [36] = target: T36, panel of 442 kinases (Homo sapiens, UniProt P49137)
T36 construct: purchased KINOMEscan
Description: as §1

panel of 442 kinases [37] = target: T37, panel of 442 kinases (Homo sapiens, UniProt Q96GD4)
T37 construct: purchased KINOMEscan
Description: as §1

panel of 442 kinases [38] = target: T38, panel of 442 kinases (Homo sapiens, UniProt P00533, L858R/T790M)
T38 construct: purchased KINOMEscan
Description: as §1

panel of 442 kinases [39] = target: T39, panel of 442 kinases (Homo sapiens, UniProt P57078)
T39 construct: purchased KINOMEscan
Description: as §1

panel of 442 kinases [40] = target: T40, panel of 442 kinases (Homo sapiens, UniProt O75582)
T40 construct: purchased KINOMEscan
Description: as §1

panel of 442 kinases [41] = target: T41, panel of 442 kinases (Homo sapiens, UniProt P27448)
T41 construct: purchased KINOMEscan
Description: as §1

panel of 442 kinases [42] = target: T42, panel of 442 kinases (Homo sapiens, UniProt P21127)
T42 construct: purchased KINOMEscan
Description: as §1

## COc1cc(C(=O)N2CCC(N3CCN(C)CC3)CC2)ccc1Nc1ncc2c(n1)N1CCc3cccc(c31)C(=O)N2C [Compound 24]
Panel of 442 kinases [1]
  KINOMEscan: ICK: 100
Panel of 442 kinases [2]
  KINOMEscan: PRKCQ: 100
Panel of 442 kinases [3]
  KINOMEscan: PFTAIRE2: 93
Panel of 442 kinases [4]
  KINOMEscan: EPHA1: 100
Panel of 442 kinases [5]
  KINOMEscan: ANKK1: 100
Panel of 442 kinases [6]
  KINOMEscan: ERBB4: 100
Panel of 442 kinases [7]
  KINOMEscan: BLK: 100
Panel of 442 kinases [8]
  KINOMEscan: MERTK: 100
Panel of 442 kinases [9]
  KINOMEscan: GRK1: 100
Panel of 442 kinases [10]
  KINOMEscan: RET(V804M): 100
Panel of 442 kinases [11]
  KINOMEscan: LRRK2: 20
Panel of 442 kinases [12]
  KINOMEscan: CDK4-cyclinD1: 100
  KINOMEscan: CDK4-cyclinD3: 100
Panel of 442 kinases [13]
  KINOMEscan: PIP5K2C: 38
Panel of 442 kinases [14]
  KINOMEscan: ACVR1B: 88
Panel of 442 kinases [15]
  KINOMEscan: NEK7: 100
Panel of 442 kinases [16]
  KINOMEscan: EPHB4: 100
Panel of 442 kinases [17]
  KINOMEscan: EPHB1: 100
Panel of 442 kinases [18]
  KINOMEscan: DMPK2: 100
Panel of 442 kinases [19]
  KINOMEscan: p38-gamma: 61
Panel of 442 kinases [20]
  KINOMEscan: MAP3K2: 100
Panel of 442 kinases [21]
  KINOMEscan: RAF1: 100
Panel of 442 kinases [22]
  KINOMEscan: IKK-alpha: 100
Panel of 442 kinases [23]
  KINOMEscan: ITK: 100
Panel of 442 kinases [24]
  KINOMEscan: PIK3CA(E545K): 100
Panel of 442 kinases [25]
  KINOMEscan: PIK3CA: 70
Panel of 442 kinases [26]
  KINOMEscan: PIK3C2G: 100
Panel of 442 kinases [27]
  KINOMEscan: CTK: 100
Panel of 442 kinases [28]
  KINOMEscan: MST4: 100
Panel of 442 kinases [29]
  KINOMEscan: MET: 100
Panel of 442 kinases [30]
  KINOMEscan: MAP4K3: 100
Panel of 442 kinases [31]
  KINOMEscan: PIP5K1A: 100
Panel of 442 kinases [32]
  KINOMEscan: LZK: 100
Panel of 442 kinases [33]
  KINOMEscan: PIK3CD: 100
Panel of 442 kinases [34]
  KINOMEscan: FLT4: 84
Panel of 442 kinases [35]
  KINOMEscan: MLCK: 100
Panel of 442 kinases [36]
  KINOMEscan: MAPKAPK2: 100
Panel of 442 kinases [37]
  KINOMEscan: AURKB: 79
Panel of 442 kinases [38]
  KINOMEscan: EGFR(L858R,T790M): 100
Panel of 442 kinases [39]
  KINOMEscan: RIPK4: 100
Panel of 442 kinases [40]
  KINOMEscan: RPS6KA5(Kin.Dom.1-N-terminal): 100
Panel of 442 kinases [41]
  KINOMEscan: MARK3: 100
Panel of 442 kinases [42]
  KINOMEscan: CDC2L1: 98
